Laboratory results as given in article PMC3479967, “Drug-Drug Interactions Potential of Icariin and Its Intestinal Metabolites via Inhibition of Intestinal UDP-Glucuronosyltransferases” (Evidence-based Complementary and Alternative Medicine : eCAM, 2012).

Experiments:
UGT1A1 = biological target: T1, UGT1A1 (Homo sapiens, UniProt P22309); experiment: Inhibition of recombinant UGT1A1 activity (4-MU glucuronidation); conditions: read-out: IC50 for inhibition of UGT1A1 activity; recombinant human UGT1A1, 110 μM 4-MU, mean ± SD
T1 sequence (P22309 26-533): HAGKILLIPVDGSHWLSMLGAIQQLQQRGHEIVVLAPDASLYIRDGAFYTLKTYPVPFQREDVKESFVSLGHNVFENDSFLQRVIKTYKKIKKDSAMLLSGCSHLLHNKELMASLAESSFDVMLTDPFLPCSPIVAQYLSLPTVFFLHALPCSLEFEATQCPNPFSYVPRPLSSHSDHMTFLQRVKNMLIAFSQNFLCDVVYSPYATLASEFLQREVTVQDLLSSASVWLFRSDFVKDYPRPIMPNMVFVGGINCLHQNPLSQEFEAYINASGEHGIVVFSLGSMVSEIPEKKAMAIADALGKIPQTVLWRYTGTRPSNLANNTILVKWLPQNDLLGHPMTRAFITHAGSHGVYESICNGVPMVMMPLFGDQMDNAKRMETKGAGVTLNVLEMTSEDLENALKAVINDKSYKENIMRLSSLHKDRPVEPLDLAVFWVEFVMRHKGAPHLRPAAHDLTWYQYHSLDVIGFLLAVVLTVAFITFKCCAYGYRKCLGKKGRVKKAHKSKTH
Procedure: (§1) A panel of recombinant human UGT supersomes (UGT1A1, UGT1A3, UGT1A4, UGT1A6, UGT1A7, UGT1A8, UGT1A9, UGT1A10, UGT2B4, UGT2B7, UGT2B15, and UGT2B17) expressed in baculovirus-infected insect cells were purchased from BD Gentest Corp. (Woburn, MA, USA).
(§2) 4-MU, a nonselective substrate of UGTs, was used as probe substrate for all UGTs except UGT1A4. Incubations with each individual enzyme were conducted using conditions previously described. There was a 5 min preincubation step at 37°C before the reaction was started by addition of UDPGA. The incubation mixtures were then centrifuged at 20,500 ×g for 15 min to obtain the supernatant. Aliquots (20 μL) were then analyzed by HPLC. The HPLC system (SHIMADZU, Kyoto, Japan) consisted of an SCL-10A system controller, two LC-10AT pumps, a SIL-10A auto injector, and a SPD-10AVP UV detector. Chromatographic separation was achieved using a Kromasil ODS column (4.6 × 150 mm I.D., 5 μm particle size) at a flow rate of 1 mL/min and UV detection at 316 nm. The mobile phase consisted of 10 mM KH2PO4, pH 2.7 (A) and acetonitrile (B). […]
(§3) Inhibition data from experiments were graphically represented by Dixon plots. K i values were calculated by nonlinear regression using the equations for competitive inhibition (1), noncompetitive inhibition (2), or mixed inhibition (3), [22] […]

UGT2B17 = biological target: T2, UGT2B17 (Homo sapiens, UniProt O75795); experiment: Inhibition of recombinant UGT2B17 activity (4-MU glucuronidation); conditions: read-out: IC50 for inhibition of UGT2B17 activity; recombinant human UGT2B17, 2000 μM 4-MU, mean ± SD
T2 sequence (O75795 24-530): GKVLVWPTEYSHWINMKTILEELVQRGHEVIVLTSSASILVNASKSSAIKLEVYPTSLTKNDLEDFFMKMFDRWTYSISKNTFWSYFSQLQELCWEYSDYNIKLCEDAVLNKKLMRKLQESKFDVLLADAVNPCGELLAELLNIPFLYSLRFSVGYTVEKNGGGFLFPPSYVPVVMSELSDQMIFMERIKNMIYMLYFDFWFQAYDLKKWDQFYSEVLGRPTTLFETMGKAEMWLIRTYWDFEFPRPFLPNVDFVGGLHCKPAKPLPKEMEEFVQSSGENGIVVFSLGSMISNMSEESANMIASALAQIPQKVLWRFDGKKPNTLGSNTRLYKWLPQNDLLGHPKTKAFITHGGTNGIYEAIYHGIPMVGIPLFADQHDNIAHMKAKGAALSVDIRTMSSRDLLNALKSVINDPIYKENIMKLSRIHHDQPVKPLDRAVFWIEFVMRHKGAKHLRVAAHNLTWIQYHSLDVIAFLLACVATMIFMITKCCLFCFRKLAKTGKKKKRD
Procedure: as §1, §2, §3

Question: Icariside II was tested. Which IC50 (UGT1A1) did it give?
Answer: Its IC50 is over 100 µM.

Question: What about the IC50 (UGT2B17) of the same substance?
Answer: Its IC50 is over 100 µM.
